Measurements from patent publication US20260207602A1, “EGFR INHIBITORS” (Blueprint Medicines Corporation, priority 2022, published 2026).

By UniProt entry, the sequences of proteins in these tests, tags left out. Where a name states a change or a piece, a line headed by the entry shows the natural chain unless it says otherwise. Residues count along the entry.
UniProt P00533, 25-1210 L858R limits assumed: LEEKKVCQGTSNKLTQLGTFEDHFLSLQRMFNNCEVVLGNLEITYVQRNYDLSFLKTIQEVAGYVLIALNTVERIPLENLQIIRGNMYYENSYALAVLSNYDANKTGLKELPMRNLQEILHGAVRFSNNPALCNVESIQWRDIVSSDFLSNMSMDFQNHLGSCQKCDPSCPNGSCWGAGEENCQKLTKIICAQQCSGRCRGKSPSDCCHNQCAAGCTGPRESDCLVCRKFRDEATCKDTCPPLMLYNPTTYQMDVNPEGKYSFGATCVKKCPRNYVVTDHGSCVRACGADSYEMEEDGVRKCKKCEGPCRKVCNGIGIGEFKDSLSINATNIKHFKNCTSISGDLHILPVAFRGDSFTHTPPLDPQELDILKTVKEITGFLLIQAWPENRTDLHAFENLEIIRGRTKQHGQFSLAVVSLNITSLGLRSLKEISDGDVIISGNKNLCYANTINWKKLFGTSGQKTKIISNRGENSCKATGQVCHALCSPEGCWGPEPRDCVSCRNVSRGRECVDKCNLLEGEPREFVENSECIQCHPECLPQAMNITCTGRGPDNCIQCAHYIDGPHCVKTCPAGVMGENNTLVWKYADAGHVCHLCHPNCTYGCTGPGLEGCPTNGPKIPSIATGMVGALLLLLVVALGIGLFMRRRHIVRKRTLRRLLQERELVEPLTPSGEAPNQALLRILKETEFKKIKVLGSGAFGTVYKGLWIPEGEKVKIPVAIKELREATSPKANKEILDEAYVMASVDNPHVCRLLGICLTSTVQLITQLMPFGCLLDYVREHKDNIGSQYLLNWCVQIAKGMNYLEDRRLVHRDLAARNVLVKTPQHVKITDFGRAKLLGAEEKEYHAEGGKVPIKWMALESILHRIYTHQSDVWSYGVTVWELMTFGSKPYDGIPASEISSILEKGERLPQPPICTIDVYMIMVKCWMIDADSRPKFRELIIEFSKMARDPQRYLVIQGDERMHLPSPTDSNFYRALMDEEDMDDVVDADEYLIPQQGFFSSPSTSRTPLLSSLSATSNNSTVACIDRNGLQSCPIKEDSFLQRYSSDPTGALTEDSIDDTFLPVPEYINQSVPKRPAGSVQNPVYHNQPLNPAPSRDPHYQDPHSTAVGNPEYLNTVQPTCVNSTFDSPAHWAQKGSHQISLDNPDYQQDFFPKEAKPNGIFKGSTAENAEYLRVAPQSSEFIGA

How the values were obtained:
[1] = target: EGFR L858R (Homo sapiens, UniProt P00533, L858R); experiment: Biochemical EGFR inhibition assay (Caliper mobility shift), EGFR L858R; conditions: read-out: Enz EGFR L858R IC50, EGFR L858R enzyme
[2] = target: EGFR (d746-750) (Homo sapiens, UniProt P00533, DEL746-750); experiment: Biochemical EGFR inhibition assay (Caliper mobility shift), EGFR (d746-750); conditions: read-out: Enz EGFR Exon 19-del IC50, EGFR Exon 19-del enzyme
[3] = target: intracellular phosphorylation of EGFR (Tyr1068) in PC-9 cells (Homo sapiens, UniProt P00533, DEL746-750); experiment: PC-9 pEGFR AlphaLISA assay; conditions: read-out: Phos EGFR PC9 IC50, 4 hours incubation

Measured: IC50

CN1CCCC(Oc2cc(-c3cnn(C)c3)cc3ncnc(Nc4ccc5ncsc5c4)c23)C1 (single isomer, unassigned)
< 10 nM: all assays above
